Biological target: galectin-3 expression on the cell membranes of cancer cell lines (Homo sapiens, UniProt P17931)
Details: 0.1 uC/ml, 30 min incubation; cell pellet/medium radioactivity concentration

Chains of the proteins cited; added tags and fusions are not shown.
UniProt P17931, whole entry: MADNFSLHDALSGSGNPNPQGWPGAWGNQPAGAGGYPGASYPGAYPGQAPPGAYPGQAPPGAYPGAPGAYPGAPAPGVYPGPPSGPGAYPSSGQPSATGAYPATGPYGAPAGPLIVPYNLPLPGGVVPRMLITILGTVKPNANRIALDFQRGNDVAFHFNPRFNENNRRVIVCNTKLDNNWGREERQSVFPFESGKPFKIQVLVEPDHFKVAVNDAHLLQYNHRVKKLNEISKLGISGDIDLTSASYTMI

Structure (SMILES): OCC1OC(SC2OC(CO)C(O)C(n3cc(-c4cccc([18F])c4)nn3)C2O)C(O)C(n2cc(-c3cccc(F)c3)nn2)C1O [[^18F]FPTDG, 3-(3-[^18F]fluorophenyltriazolyl)-3-deoxy-3′-(3-fluorophenyltriazolyl)-3′-deoxy-1-thio-β-D-digalactopyranoside]
- level of binding (accumulation) of radiotracer in cancer cells vs galectin-3 expression on cellular membranes: reflects the level of galectin-3 expression on the cell membranes

Source: US10799522B2, “Compositions and methods relating to galectin detection” (Wayne State University, priority 2015, dated 2020)
